Measured values published in patent publication US4005084A, “Thienylmethyl phenoxy morpholine compounds” (Yoshitomi Pharmaceutical Industries, Ltd., priority 1975, dated 1977).

Target: T1, acetylcholine (contracting action of the guinea pig intestine) (Cavia porcellus)
T1 construct: contracting action of the guinea pig intestine; from tissue; host or cells: guinea pig intestine
Experiment: Acetylcholine antagonistic activity on contraction of guinea pig intestine
Method: Acetylcholine antagonistic activity was tested according to the method described by J. M. Van Rossum et al. in the Archives Internationales de Pharmacodynamie et de Therapie, vol. 143, pp. 240-246 and pp. 299-330 (1963). The pA2 is the negative of the logarithm, to the base 10, of the molar concentration of the test compound which reduced the effect of a double dose of acetylcholine on contracting action of the guinea pig intestine compared with that of a single dose.

CN1[C@@H]2CC[C@H]1C[C@@H](OC(=O)C(CO)c1ccccc1)C2 (stereo partly shown) [Atropine]
Kb: 1.26 nM
